Data on one compound can be found in paper PMC6026870, “Selective induction of cancer cell death by VDAC1‐based peptides and their potential use in cancer therapy” (Molecular Oncology, 2018).

A short description of series [1]: Peptide solubility (absorbance of supernatant). Type of series: physicochemical. The conditions noted are these: 5 mM in 5% DMSO diluted to 1.1 mM in HBSS; A280 of supernatant after 12,000g, before and after 75 min at 24 °C; relative to Tf‐D‐LP4 (Fig. S3C). As for the experimental part:
(§1) Purified HK-I (13 µg/ml) was pre-incubated with the indicated concentrations of Tf-D-LP4 (●) or R-Tf-D-LP4 (○) and assayed for HK activity as described in Materials and Methods. Change in absorbance at 340 nm (NADH production) was spectrophotometrically measured following addition of 1 mM ATP, and 0.05 unit/ml glucose-6-phosphate dehydrogenase. C. Tf-D-LP4 and R-Tf-D-LP4 solubility. The peptides were dissolved to a final concentration of 5 mM in 5% DMSO and diluted to 1.1 mM in HBSS. Peptide absorbance in the supernatant was measured at 280 nm following centrifugation at 12,000g before and after 75 min incubation at 24 °C. D, E. Tf-D-LP4 and R-Tf-D-LP4 (0.5 mM in 5% DMSO) were incubated at -20 °C (○), 4 °C (●) or 24 °C (▲) and at the indicated time, aliquots (10 µM, final concentration) were assayed for cell death as described in Materials and Methods. Cell death was analyzed using PI and FACS analysis. In control cells, cell death was 3%, while peptide treatment led to levels of cell death over 90%.

Series [2] relates to A549‐, MDA‐MB‐231‐, and U‐87MG‐derived tumors. The series can be described thus: qPCR of excised xenograft tumors. The class given is in vivo, mouse. The conditions noted are these: A549, MDA‐MB‐231, U‐87MG tumors, vs control tumors, n = 3 (Fig. 6F). Here is the method:
U‐87MG cells (3 × 10^6/mouse), A549 cells (5 × 10^6/mouse), or MDA‐MB‐231 cells (3 × 10^6/mouse) were inoculated subcutaneously (s.c.) into the hind leg flanks of athymic 8‐week‐old male nude mice (Envigo, Huntingdon, UK). Tumor size was measured using a digital caliper and volume was calculated, and when reached 50–100 mm^3 for each tumor type, mice were randomly divided into two groups (five mice per group). One group was intratumorally injected with HBSS (5.33 mM KCl, 0.44 mM KH2PO4, 138 mM NaCl, 4 mM NaHCO3, 0.3 mM Na2HPO4, and 5.6 mM glucose, pH 7.3) containing 0.05% DMSO and the second group with the peptide in HBSS containing 0.05% DMSO, with the R‐Tf‐D‐LP4 peptide at a final concentration of 40 or 60 μM. The xenografts were injected (two points, 20 μL per tumor) every two days. Beginning on the day of inoculation, mouse weight and tumor volume were monitored twice a week. […]
Total RNA was isolated from untreated and peptide‐treated tumors (three mice each) using an RNeasy Mini Kit (Qiagen, Hilden, Germany) according to the manufacturer's instructions. Total RNA quality was analyzed using the Agilent RNA 6000 Nano Kit. […] The copy numbers for each sample were calculated by the CT‐based calibrated standard curve method. The mean fold changes (±SE) of three replicates were calculated.
A general note: Real-time PCR tracks product formation cycle by cycle.

Another series concerns A549. The class given is cell-based. The settings on record: 6 h. Here is the method:
(§2) Leukemia cells, U‐937, MEC‐1 cells (4 × 10^5 or 8 × 10^5 cells/sample, respectively), as well as other leukemia or suspension cell lines, were incubated in 200 μL serum‐free medium with various concentrations of the peptide for 90 min at 23–25 °C, collected by centrifugation (500 g, 5 min), washed with PBS, and analyzed for cell death. Adherent cells (6 × 10^5 mL^−1 at 70–80% confluence) were incubated with the peptide of interest in 500 μL serum‐free recommended culture medium for 3–6 h at 37 °C and 5% CO2. The cells were then trypsinized, centrifuged (1500 g, 5 min), washed with PBS, and analyzed for the desired activity. Following peptide treatment, cells were subjected to cell death analysis. Propidium iodide (PI) staining was performed by addition of PI (6.25 μg·mL^−1) to the cells and immediate analysis by the EC800 Flow cytometer Analyzer–Eclipse or the FACS caliber (Becton‐Dickinson, San Jose, CA, USA) and BD […] PRO software (BD Biosciences, San Jose, CA, USA).
(§3) Forty‐one cancerous and five noncancerous cell lines were used in this study to examine the cell‐killing activity of the VDAC1‐based peptides Antp‐LP4, Tf‐LP4, Tf‐D‐LP4, R‐Tf‐D‐LP4, N‐Ter‐Antp, and others (Figs 1, 2, 3 and Tables 1, 2, 3). For each line, cells were incubated with different peptide concentrations, and cell death was determined by PI staining and FACS analysis (Figs 1, 2, 3). In addition, for each cell line, the concentration of the peptide inducing 50% cell death (EC50) was determined (Tables 1, 2, 3).

In a further series the test system is PANC1. The class given is cell-based. The conditions noted are these: 6 h. Here is the method:
as §2, §3

Series [3] in a line: Peptide stability on storage, read out as cell death activity. The class given is physicochemical. Here is the method: as §1

SMILES strings stand for the structures.

Consider `CC[C@H](C)[C@H](NC(=O)[C@H](Cc1ccc(O)cc1)NC(=O)[C@@H]1CCCN1C(=O)[C@H](CCCNC(=N)N)NC(=O)[C@H](Cc1c[nH]cn1)NC(=O)[C@@H](CO)NC(=O)[C@@H](Cc1c[nH]c2ccccc12)NC(=O)[C@H](NC(=O)[C@@H](Cc1c[nH]c2ccccc12)NC(=O)[C@@H](CCC(=O)O)NC(=O)[C@@H](CCCCN)NC(=O)[C@@H](CCCCN)NC(=O)[C@@H](CC(C)C)NC(=O)[C@@H](CCC(=O)O)NC(=O)[C@H](NC(=O)[C@@H](C)NC(=O)[C@H](NC(=O)[C@@H](CC(N)=O)NC(=O)[C@@H](CC(C)C)NC(=O)[C@@H](C)NC(=O)[C@@H](Cc1c[nH]c2ccccc12)NC(=O)[C@H](NC(=O)[C@@H](C)NC(=O)CNC(=O)[C@@H](CC(N)=O)NC(=O)[C@@H](CO)NC(=O)[C@@H](CC(N)=O)NC(=O)[C@@H](CCCCN)NC(=O)[C@@H](Cc1c[nH]c2ccccc12)NC(=O)[C@H](NC(=O)[C@@H](Cc1c[nH]c2ccccc12)NC(=O)[C@H](N)CCCCN)[C@H](C)O)[C@H](C)O)C(C)C)[C@H](C)O)[C@H](C)O)C(=O)N[C@@H](C)C(=O)N[C@@H](Cc1c[nH]cn1)C(=O)O` [R‐Tf‐D‐LP4], for which, in series [1], the solubility entry is listed as “increased solubility”. The “decrease in Ki‐67 mRNA levels in peptide‐TTs” value in series [2] is “two‐ to threefold”. In addition, the EC50 was determined as 2.7 ± 0.5 µM in the series with A549 and 3.5 ± 0.1 µM with PANC1. Further, the “cell death on peptide treatment” value in series [3] (10 µM final concentration, PI and FACS, control cells 3%, cell line not printed (Fig. S3D,E)) was “over 90%”. For the same compound, in series [3] (0.5 mM in 5% DMSO at -20, 4 or 24 °C, aliquots (10 µM final) assayed for cell death, PI/FACS, relative to Tf‐D‐LP4 (Fig. S3D,E)), the “stability with respect to temperature and incubation time” value was “more stability with respect to temperature and incubation time”.

Usually EC50 stands for the concentration needed to bring the measured effect to its halfway point. High values mean weaker potency, low ones greater potency.
